Results reported in ChEMBL document CHEMBL3621167, “Therapeutic Potential of 5-HT6 Receptor Agonists” (J Med Chem, 2015).

How the values were obtained:
Homo sapiens [1] = species: Homo sapiens; assay: Selectivity ratio of Ki for human 5-HT7 receptor to Ki for human 5-HT6 receptor
Homo sapiens [2] = species: Homo sapiens; assay: Selectivity ratio of Ki for human 5-HT1A receptor to Ki for human 5-HT6 receptor
Homo sapiens [3] = species: Homo sapiens; assay: Selectivity ratio of Ki for human 5-HT1D receptor to Ki for human 5-HT6 receptor

## CCc1[nH]c2ccc(OC)cc2c1CCN(C)C
Homo sapiens [1]
  Ratio Ki: 18
Homo sapiens [2]
  Ratio Ki: 10
Homo sapiens [3]
  Ratio Ki: 18
